These are literature values, as cited in paper PMC12308805, “Ultrahigh-Throughput Virtual Screening Strategies against PPI Targets: A Case Study of STAT Inhibitors” (Journal of Chemical Information and Modeling, 2025).

For the data set, the system named is STAT3. Particulars: sheet 6QHD_actives_decoys; retrospective screening set for STAT3 SH2 domain (PDB 6QHD); decoys generated with DUD-E and presumed inactive, not tested; ref DUD-E; cited from earlier work.

`O=C(CCC(=O)NNC(=O)c1cc([N+](=O)[O-])cc([N+](=O)[O-])c1)N/N=C(\O)c1cc([N+](=O)[O-])cc([N+](=O)[O-])c1`: the Type entry is “Inactive (Decoy)”.
